Experimental data taken from US9724341B2 (priority 2013, dated 2017).

Conditions: isothermal TGA, API powder
Procedure: A typical calorimetric scan of nicotine m-salicylate powder is illustrated in FIG. 2. […] Thermogravimetric analysis on the powder was run in both scanning and isothermal modes. […] Isothermal data were also obtained on the API powder (˜10 mg per run) at 40° C., 50° C., and 60° C. for periods of at least 3 days.

Nicotine monodimethylmalonate
Nicotine Mass Loss (40° C.): 51 µg/day
Nicotine Mass Loss (50° C.): 374 µg/day
Nicotine Mass Loss (60° C.): 2707 µg/day

Like-named read-outs stand apart in the source and are kept apart here.
